Patent publication US9725441B2, “Histone demethylase inhibitors” (CELGENE QUANTICEL RESEARCH, INC., priority 2012, dated 2017)

Tested on: KYSE-150 esophageal carcinoma cell line
Experiment: In vitro cell-based assay: cellular proliferation via BrdU incorporation ELISA
Parameters: species or system human
Conditions: KYSE-150 cells, 168 hr compound incubation

- IC50: 1 to 10 µM
Substance: 3-{[(6-chloro-1,2,3,4-tetrahydronaphthalen-1-yl)methyl]amino}pyridine-4-carboxylic acid [Example 67]
